Earlier results as cited in patent US20050032096A1, “Methods for predicting drug sensitivity in patients afflicted with hypertension” (deCODE genetics ehf., priority 2003, published 2005).

Biological target: AT1 receptor (Homo sapiens, UniProt P30556)
Conditions: cited from earlier work

CCCCc1nc(Cl)c(CO)n1Cc1ccc(-c2ccccc2-c2nn[nH]n2)cc1 [Cozaar, Losartan potassium]
greater affinity for the AT1 receptor than for the AT2 receptor: about 1000 fold | type of inhibition of the AT1 receptor (in vitro binding studies): reversible, competitive inhibitor
